Values quoted from earlier work, collected in patent publication US7183291B2 (Council of Scientific and Industrial Research, priority 1999, dated 2007).

Experiments:
[1] = test system: erythrocytes; conditions: incubated with G-6PD deficient erythrocytes; cited from earlier work
[2] = oral labelled primaquine; cited from earlier work

SMILES: COc1cc(NC(C)CCCN)c2ncccc2c1 (stereo not drawn) [Primaquine, 8-(4-amino-1-methylbutylamino)-6-methoxy quinoline, reference compound]
- oxidant activity [1]: little oxidant activity
- radioactivity in lung, adrenal, spleen, kidney, heart, blood and pancreas [2]: 22%
- radioactivity reached in to the plasma [2]: 25%
